AlphaSeq binding of Ab-14 light chain variants to a spike HR2 peptide

The target is the same throughout: PDVDLGDISGINAS, from the HR2 region of SARS-CoV-2 spike.

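The parent was found by panning a naive human phage display library on the peptide. In library AAYL50, one, two or three CDR residues were substituted; doubles and triples were drawn at random. AlphaSeq pools MATa yeast showing the antibodies with MATalpha yeast showing the peptide. After mating in shaken culture at 30 °C for 16 h, diploids were selected and their barcode pairs sequenced. Read counts were normalised to the haploid input and turned into Kd by a linear fit to BCL2-family pairs of known affinity, for each replicate. There are three technical replicates.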

Parent: Ab-14, a human scFv built as VH, three GGGGS repeats, VL. Only the CDRs of the light chain vary.
VH: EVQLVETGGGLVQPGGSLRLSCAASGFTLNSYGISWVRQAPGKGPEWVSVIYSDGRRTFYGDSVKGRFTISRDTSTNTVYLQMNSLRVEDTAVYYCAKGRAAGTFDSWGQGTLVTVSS
VL: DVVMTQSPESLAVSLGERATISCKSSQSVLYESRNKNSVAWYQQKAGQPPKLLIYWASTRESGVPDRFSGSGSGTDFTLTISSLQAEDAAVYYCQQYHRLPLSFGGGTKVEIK

The parent's light chain CDRs are KSSQSVLYESRNKNSVA, WASTRES, QQYHRLPLS; each variant's own CDRs replace them letter for letter. Affinities are written as log10 Kd with Kd in nM; a lower number is a better binder. A pair that was not seen in that replicate is written "nd"; this usually means weak binding, but a binder can also be missed. Background: pairings of library AAYL50 with three empty control strains gave a value in 18% of cases (median 4.19, 5th percentile 2.99). Values in that range, when seen in few replicates, are hard to tell from nonspecific mating. For each scFv, signals with the empty controls are counted beside the result, with their mean in brackets.

CDR-L1	CDR-L2	CDR-L3	replicates, log10 nM	signal with controls
KSSQSVLIESRNKNSVA	WCSTRES	QQYGRLPLS	nd / 2.23 / 2.98	1 of 9 (3.16)
KSSQSVLWESYNKNSGA	WASTRES	QQYHRLPLS	nd / nd / nd	0 of 9
KSSQSVLYESRNKNSVA	WAPTEES	QQYVRLPLS	nd / nd / 4.59	0 of 9
KSSQSFLYESRNYNSVA	WASTRES	QQYHMLPLS	nd / nd / nd	1 of 9 (3.18)
KSSQSVLYESRNKNSVA	WASTAEK	QQYHRLPLS	5.61 / 3.77 / 5.09	2 of 9 (3.38)
KQSQSVLYASRNKNSVA	WASTRES	QQYHRLALS	1.89 / 1.28 / 1.53	1 of 9 (3.24)
WSSASVLYESRNKNSVA	WAFTRES	QQYHRLPLS	nd / nd / 2.95	0 of 9
KSSQSVLYESRNKNSVA	WASTRES	MKYHRLPES	0.99 / 1.02 / 0.89	2 of 9 (4.57)
KSSQLVLYESRNKNSPA	WASTRES	QQYHSLPLS	nd / nd / nd	2 of 9 (3.75)
KSSQSVLYEERNKNSVA	WATTRES	QQYHRLPLS	1.37 / 1.51 / 1.51	5 of 9 (4.33)
KSSDSELYESRNKNSVA	WASTRES	QQYHRLPLS	0.40 / 0.62 / 0.51	5 of 9 (4.60)
QSSQSFLYESRNKNSVA	WASTREV	QQYHRLPLS	1.33 / 1.17 / 1.32	2 of 9 (4.38)
KSSQYVLYESRNKNSVA	WAITRES	QQYHGLPLS	nd / 4.85 / 6.13	2 of 9 (3.97)
KPSTSVLYESRGKNSVA	WASTRES	QQYHRLPLS	nd / nd / nd	1 of 9 (4.08)
KHSQSVLYFSRNKNSVV	WASTRES	QQYHRLPLS	nd / nd / nd	0 of 9
KSIQSVLYESRNKNSVA	WASTRES	QQYHRLPLA	1.21 / 1.53 / 1.30	0 of 9
KSCQSVLYESRNKNSVA	SASTYES	QQYHRLPLS	6.15 / 4.67 / 5.39	3 of 9 (3.77)
KSSKGVLYESRNKNSVA	WASTRES	QQYHRLPLD	1.07 / 1.04 / 1.14	0 of 9
KSSQSVLYEARNKNSVA	WASTRET	QQYHRLPNS	nd / nd / nd	0 of 9
KSSQSVLYESRNKNSVA	WRSTRES	QSYHRLPLR	3.04 / 3.23 / 3.48	4 of 9 (4.76)
KSSQSVTYESRFKNSVA	WASTRDS	QQYHRLPLS	1.10 / 1.29 / 1.37	2 of 9 (4.23)
KSSQSTLYESRNNNSVA	WASTRES	QQYHRLPIS	1.91 / 2.00 / 2.14	6 of 9 (4.83)
KSSQSKLYESGNVNSVA	WASTRES	QQYHRLPLS	0.80 / 1.09 / 1.04	1 of 9 (5.16)
KSSQSVLYESRNVNSVA	WASTRES	PQHHRLPLS	5.31 / nd / nd	3 of 9 (4.76)
KSSQSVLYESRNKNSVA	WWSTRCS	QKYHRLPLS	nd / nd / nd	2 of 9 (3.77)
KSSQSVLYERRNKNSVA	WASTRES	QQYHRLDLS	2.33 / 2.37 / 2.33	1 of 9 (3.46)
RSSQSVLYESRNKNSVA	WASTTAS	QQYHRLPLS	1.71 / 1.58 / 2.00	3 of 9 (4.34)
KSSQSVLYESRNKNSVA	WPSTRES	QQYHRLKGS	nd / nd / 4.36	0 of 9
KSSQSVLVESRNKISVA	WASTRES	QQYHRLFLS	nd / nd / nd	0 of 9
KSSQSVCYESRNRNSVA	WASTRES	QQYHPLPLS	1.40 / 1.27 / 1.41	3 of 9 (4.71)

A selection of 5 entries from above:

CDR-L1	CDR-L2	CDR-L3	replicates, log10 nM	signal with controls
KSCQSVLYESRNKNSVA	SASTYES	QQYHRLPLS	6.15 / 4.67 / 5.39	3 of 9 (3.77)
KSIQSVLYESRNKNSVA	WASTRES	QQYHRLPLA	1.21 / 1.53 / 1.30	0 of 9
KSSQSVLYESRNKNSVA	WWSTRCS	QKYHRLPLS	nd / nd / nd	2 of 9 (3.77)
KSSQYVLYESRNKNSVA	WAITRES	QQYHGLPLS	nd / 4.85 / 6.13	2 of 9 (3.97)
KSSQSVLYEARNKNSVA	WASTRET	QQYHRLPNS	nd / nd / nd	0 of 9

Reference: Engelhart et al. 2022, doi:10.1038/s41597-022-01779-4. File: FLAb, binding data.